Test results: patent US10336757B2, “Treatment of neurodegenerative diseases through inhibition of HSP90” (Sloan-Kettering Institute for Cancer Research, priority 2006, dated 2019)
pEC50: −log10 of the molar value. “And” between values parts separate entries of the source, which are not always exact repeats. Identical values can stand only once.

target: hsp90 in JNPL3 brain extracts; experiment: Binding to JNPL3 brain Hsp90, fluorescence polarization competition with GM-cy3B; parameters: species or system mouse; settings: compounds of FIG. 5; displacement of 3 nM GM-cy3B, JNPL3 brain homogenate, 24 h at 4° C.; unit inferred; read-out: EC50
Protocol: Binding to JNPL3 brain Hsp90. The assay buffer (HFB) contained 20 mM HEPES (K) pH 7.3, 50 mM KCl, 5 mM MgCl2, 20 mM Na2MoO4, 0.01% NP40. Before each use, 0.1 mg/mL bovine gamma globulin (BGG) (Panvera Corporation, Madison, Wis.) and 2 mM DTT (Fisher Biotech, Fair Lawn, N.J.) were freshly added. GM-cy3B, a specific Hsp90 ligand, was synthesized as previously reported (10) and was dissolved in DMSO to form 10 μM solutions. Brains were homogenized in HFB with added protease and phosphatase inhibitors. Saturation curves were recorded in which GM-cy3B (3 nM) was treated with increasing amounts of brain homogenates. […] The amount of brain homogenate for which over 90% of GM-cy3B was Hsp90 bound at equilibrium (24 h) was chosen for the competition study. For the competition experiments, each 96-well contained 3 nM GM-cy3B, brain homogenate and tested inhibitor (initial stock in DMSO) in a final volume of 100 μL. The plate was left on a shaker at 4° C. for 24 h and the fluorescence polarization values in mP were recorded. EC50 values were determined as the competitor concentrations at which 50% of GM-cy3B was displaced. Fluorescence polarization measurements were performed on an Analyst GT instrument (Molecular Devices, Sunnyvale, Calif.). For GM-cy3B, an excitation filter at 545 nm and an emission filter at 610 to 675 nm were used with a dichroic mirror of 565 nm. Measurements were taken in black 96-well microtiter plates.

Nc1nc(F)nc2c1nc(Cc1cc3c(cc1I)OCO3)n2CCCN1CCN(CCO)CC1 [PU-BSI3] and Nc1nc(F)nc2c1nc(Cc1cc3c(cc1I)OCO3)n2CCCN1CCOCC1 [PU-BSI16] are within 0.2 log units of each other in pEC50: 6.70 for the first, 6.69 for the second.

CC(C)N(CCO)CCCn1c(Cc2cc3c(cc2I)OCO3)nc2c(N)nc(F)nc21 [PU-BSI6] and CC(C)N(C)CCCn1c(Cc2cc3c(cc2I)OCO3)nc2c(N)nc(F)nc21 [PU-BSI12] are within 0.2 log units of each other in pEC50: 7.22 for the first, 7.41 for the second.

Compared with C=CCN(C)CCCn1c(Cc2cc3c(cc2I)OCO3)nc2c(N)nc(F)nc21 [PU-BSI7], C#CCN(C)CCCn1c(Cc2cc3c(cc2I)OCO3)nc2c(N)nc(F)nc21 [PU-BSI11] is 0.67 log units lower in pEC50: 7.35 for the first, 6.68 for the second.

First: CC1CN1CCCn1c(Cc2cc3c(cc2I)OCO3)nc2c(N)nc(F)nc21 (stereo not shown) [PU-BSI10]
Second: CCCN(CCCn1c(Cc2cc3c(cc2I)OCO3)nc2c(N)nc(F)nc21)C1CC1 [PU-BSI14]
The pEC50 of the first is 0.39 log units lower: 6.98 for the first, 7.37 for the second.

CC(C)NCCCn1c(Cc2cc3c(cc2Br)OCO3)nc2c(N)nc(F)nc21 [PU-DZ10] and C=Cc1cc2c(cc1Cc1nc3c(N)nc(F)nc3n1CCCNC(C)C)OCO2 [PU-HT70] are within 0.2 log units of each other in pEC50: 6.71 for the first, 6.83 for the second.

Going from CC(C)NCCCn1c(Sc2cc3c(cc2Br)OCO3)nc2c(N)ncnc21 [PU-HT64] to C=Cc1cc2c(cc1Sc1nc3c(N)ncnc3n1CCCNC(C)C)OCO2 [PU-HT65], the pEC50 falls from 6.91 to 6.67 (0.24 log units). The first is the more potent here.

Going from C=CCc1cc2c(cc1Cc1nc3c(N)nc(F)nc3n1CCCNC(C)C)OCO2 [PU-HT78] to CCc1cc2c(cc1Cc1nc3c(N)nc(F)nc3n1CCCNC(C)C)OCO2 [PU-HT133], the pEC50 rises from 5.02 to 6.09 (1.07 log units). The second is the more potent here.

same assay, conditions: displacement of 3 nM GM-cy3B, JNPL3 brain extracts; read-out: EC50 JNPL3 brain Hsp90

For CC(C)NCCCn1c(Cc2cc3c(cc2I)OCO3)nc2c(N)nc(F)nc21 [PU-DZ8], the pEC50 was 7.33 and 7.15.

same assay, conditions: read-out: EC50 JNPL3 brain Hsp90

Compound C=CCNC1=C2C[C@@H](C)C[C@H](OC)[C@H](O)[C@@H](C)/C=C(\C)[C@H](OC(N)=O)[C@@H](OC)/C=C\C=C(/C)C(=O)NC(=CC1=O)C2=O [Compound 17AAG, 17-(allyllamino)-17-demethoxygeldanamycin] has a pEC50 of 7.01.
